Laboratory results published in article PMC6405842, “Identification of a novel scaffold for a small molecule GPR139 receptor agonist” (Scientific Reports, 2019).

The chains behind the UniProt entries cited, without tags or fusion partners.
UniProt Q6DWJ6, whole entry: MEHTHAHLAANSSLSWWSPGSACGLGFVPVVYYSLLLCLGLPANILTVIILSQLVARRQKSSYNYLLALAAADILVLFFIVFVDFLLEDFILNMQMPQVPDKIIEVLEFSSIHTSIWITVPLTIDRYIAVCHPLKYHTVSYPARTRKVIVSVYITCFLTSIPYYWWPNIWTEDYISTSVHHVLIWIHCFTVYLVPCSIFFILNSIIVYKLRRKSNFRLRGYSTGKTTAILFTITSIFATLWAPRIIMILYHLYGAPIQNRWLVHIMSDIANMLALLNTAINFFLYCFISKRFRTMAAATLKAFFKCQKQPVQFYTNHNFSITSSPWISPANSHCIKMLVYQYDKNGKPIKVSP
UniProt P11229, whole entry: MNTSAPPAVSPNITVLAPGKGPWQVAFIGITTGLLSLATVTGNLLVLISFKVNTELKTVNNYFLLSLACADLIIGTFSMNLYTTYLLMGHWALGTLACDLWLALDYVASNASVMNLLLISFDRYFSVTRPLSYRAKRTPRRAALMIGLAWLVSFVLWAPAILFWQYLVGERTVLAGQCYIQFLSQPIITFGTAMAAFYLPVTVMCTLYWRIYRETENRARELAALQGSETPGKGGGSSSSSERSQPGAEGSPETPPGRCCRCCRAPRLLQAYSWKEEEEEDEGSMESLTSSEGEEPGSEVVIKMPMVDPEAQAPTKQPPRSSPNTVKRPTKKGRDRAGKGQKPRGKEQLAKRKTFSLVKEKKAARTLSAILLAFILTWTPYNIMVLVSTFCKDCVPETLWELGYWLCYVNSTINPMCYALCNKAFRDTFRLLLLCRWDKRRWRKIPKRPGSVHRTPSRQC

Tests used:
GPR139 = GPR139 (Homo sapiens, UniProt Q6DWJ6); test: Fluo-4 calcium mobilization assay, agonist mode, concentration-response curves in CHO-GPR139 cells; conditions: for EC50: GPR139; for pEC50 ± SEM: GPR139, values printed with a minus sign; for Emax ± SEM: efficacy normalized to compound 1a
[1] = molecular target: muscarinic acetylcholine receptor M1 (Homo sapiens, UniProt P11229); test: Calcium mobilization counter-screen in CHO-M1 cells; assay type: cell-based; conditions: concentration from which the calcium response is nonspecific
Experimental: All compounds were tested on a CHO-k1 cell line stably expressing GPR139 (CHO-GPR139)[11] kindly provided by H. Lundbeck A/S, Denmark. GPR139-specific responses were assessed using a CHO-k1 cell line stably expressing the muscarinic acetylcholine receptor M1 (CHO-M1) (The Missouri S&T cDNA Resource Center, # CEM100TN00). The CHO-GPR139 cells were grown in Dulbecco’s modified Eagle’s medium (DMEM) F12-Kaighn’s (ThermoFisher Scientific # 21127) supplemented with 10% dialyzed fetal bovine serum (United States origin; ThermoFisher Scientific # 26400), 1% GlutaMAX-I (100X) (ThermoFisher Scientific # 35050061), and 100 units/mL penicillin and 100 µg/mL streptomycin (ThermoFisher Scientific # 15140122) and 1 mg/mL geneticin (ThermoFisher Scientific # 11811031). The CHO-M1 cells were grown in Ham’s F12 (ThermoFisher Scientific # 21765) supplemented with 10% fetal bovine serum (South American origin; ThermoFisher Scientific # 10270) + 100 units/mL penicillin and streptomycin and 0.25 mg/mL geneticin.
The primary screening of 4,000 diverse screening compounds on GPR139, led us to identify 108 initial actives in GPR139-expressing cells. […] We excluded compounds that had (1) an effect on another simultaneously tested GPCR (data not shown), (2) reactive groups, or (3) poor predicted solubility. 52 of the active compounds were re-purchased for validation, which were tested at three concentrations (100, 50 and 25 μM) using the same methodology as in the screening campaign. Out of the 52 compounds, 13 compounds had no effect (excluded as false positives), 28 compounds elicited an equal response in GPR139 and muscarinic acetylcholine receptor M1 cells and were designated as not selective, and 11 compounds were identified as viable candidates (AC4, AC7, AC8, AC9, AC10, AC11, AC12, AC13, AC14, AC16, and AC37) (Supplementary Fig. S1). None of the 11 hits promoted calcium mobilization in the M1 receptor cells (data not shown). The 11 hits were then screened in pure agonist mode (i.e., without the presence of 1a) to evaluate if they were agonists or antagonists (Fig. 3 and Supplementary Table S1). All 11 hits were agonists.
When screening the compounds as antagonists they were pre-incubated for 10 min as in the HTS. 33 μL of 3.2 μM 1a on the CHO-GPR139 cells or 20 μM carbachol on the CHO-M1 cells were added automatically after baseline measurements.

[2] = Solubility remark in the Note column of Supplementary Table S2; conditions: polar solvents

SMILES	EC50 (GPR139) [nM]	pEC50 ± SEM (GPR139)	Emax ± SEM (GPR139) [%]	Note: Nonspecific ≥ concentration [1]	Note: solubility [2]
Cc1ccc(C)c(C(=O)CN2C(=O)NC(C)(c3ccc4c(c3)OCCO4)C2=O)c1 (stereo not drawn)	1190	-5.93	102	Nonspecific ≥ 30 μM	–
CC(NC(=O)CN1C(=O)NC(C)(c2ccc3c(c2)OCO3)C1=O)C1CC1 (stereo not drawn)	1880	-5.73	103	–	–
CC(C)CCNC(=O)CNC(=O)NCc1ccc(F)cc1	14100	-4.85	87	–	–
O=C(NCCCOC1CCCCC1)NCc1ccc(Cl)cc1	16100	-4.79	75	–	–
CN(C)C(=O)CN1C(=O)NC(C)(c2ccc3c(c2)OCO3)C1=O (stereo not drawn)	6530	-5.19	101	–	–
O=C1NC2(CCc3ccccc32)C(=O)N1Cc1cn2ccccc2n1 (stereo not drawn)	12100	-4.92	101	–	–
CC1(c2ccc3c(c2)OCO3)NC(=O)N(CC(=O)c2ccc3c(c2)CCC3)C1=O (stereo not drawn)	1000	-6.00	65	–	–
CCOc1ccc(C(C)NC(=O)NCCCOCC(C)C)cc1 (stereo not drawn)	8070	-5.09	92	–	–
CC1(C2CC2)NC(=O)N(CC(=O)N2CCCSc3ccccc32)C1=O (single isomer, unassigned)	–	-5.15	–	–	–
O=C(CN1C(=O)NC2(CCCc3ccccc32)C1=O)c1ccc2c(c1)OCO2 (stereo not drawn)	2060	-5.69	94	–	–
COc1ccc([C@@]2(C)NC(=O)N(Cc3cn4cc(Cl)ccc4n3)C2=O)cc1	24000	-4.62	95	–	–
Cc1ccc2nc(CN3C(=O)N[C@](C)(c4ccc5c(c4)OCO5)C3=O)cn2c1	14400	-4.84	103	–	–
CCC1(c2ccc(OC)cc2)NC(=O)N(CC(=O)c2ccc3c(c2)OCO3)C1=O (stereo not drawn)	1630	-5.79	114	Nonspecific ≥ 10 μM	–
CC(C)CCNC(=O)CN1C(=O)NC(C)(c2ccc3c(c2)OCO3)C1=O (stereo not drawn)	1160	-5.94	98	–	–
CC(C)CN1CCOC(CNC(=O)NCc2ccc(Cl)s2)C1 (stereo not drawn)	14800	-4.83	89	–	–
COc1ccc(C(NC(=O)NCC2CCCO2)C(F)(F)F)cc1 (stereo not drawn)	11400	-4.95	98	–	–
CC(C)COCCCNC(=O)N[C@@H](C)c1ccc(Br)cc1	–	-6.54	102	–	–
CC(C)OCCCNC(=O)NC(C)c1ccc2c(c1)OCO2 (single isomer, unassigned)	–	-5.43	–	–	–
O=C(NCCCc1nc2ccccc2[nH]1)NC1CCSc2ccc(F)cc21 (single isomer, unassigned)	–	-6.11	–	–	–
O=C1NC2(CCCc3ccccc32)C(=O)N1Cc1cn2ccccc2n1 (stereo not drawn)	2080	-5.68	102	–	–
CC1(c2cccc3ccccc23)NC(=O)N(CCC(=O)NC2CCCCC2)C1=O (stereo not drawn)	3090	-5.51	66	–	–
O=C(CN1C(=O)NC2(CCCc3ccccc32)C1=O)c1ccc(N2CCCC2=O)cc1 (stereo not drawn)	9770	-5.01	77	–	–
Cc1ccc(C2(C)NC(=O)N(Cc3cn4cc(Cl)ccc4n3)C2=O)cc1 (single isomer, unassigned)	–	-5.55	–	–	Poor solubility in polar solvents
CC1(c2cccc3ccccc23)NC(=O)N(CC(=O)c2ccc[nH]2)C1=O (stereo not drawn)	1060	-5.98	63	–	–
CC(C)OCCCNC(=O)NC(C)c1ccc(F)c(F)c1 (stereo not drawn)	1310	-5.88	101	–	–
CC(C)CNC(=O)CNC(=O)NC(C)c1ccc(OC(F)F)cc1 (stereo not drawn)	1440	-5.84	105	–	–
CC(=O)Nc1ccc(C(=O)CN2C(=O)N[C@](C)(c3ccc4c(c3)OCCO4)C2=O)c(F)c1	10200	-4.99	99	–	–
COCCn1c(C)cc(C(=O)CN2C(=O)NC(C)(c3cccc4ccccc34)C2=O)c1C (stereo not drawn)	1850	-5.73	94	–	–

Results, then the compound that gave them:

EC50 (GPR139) [nM]	pEC50 ± SEM (GPR139)	Emax ± SEM (GPR139) [%]	Note: Nonspecific ≥ concentration [1]	Note: solubility [2]	SMILES
3180	-5.50	97	–	–	CC1(c2ccc3c(c2)OCO3)NC(=O)N(CC(=O)c2c[nH]c(C(=O)N3CCCC3)c2)C1=O (stereo not drawn)
1300	-5.89	100	–	–	CC1(c2ccc3c(c2)OCO3)NC(=O)N(CC(=O)N2CCCC2)C1=O (stereo not drawn)
1900	-5.72	106	–	–	CC1(c2ccc3c(c2)OCO3)NC(=O)N(Cc2cn3ccccc3n2)C1=O (stereo not drawn)
600	-6.22	102	–	–	CC(C)OCCCNC(=O)N[C@@H](C)c1ccccc1Cl
4230	-5.37	97	–	–	CC1(c2ccc3c(c2)OCCO3)NC(=O)N(CC(=O)c2ccc3c(c2)CCN3S(C)(=O)=O)C1=O (stereo not drawn)
6400	-5.19	82	–	–	O=C(CN1C(=O)NC2(CCCc3ccccc32)C1=O)c1ccccc1 (stereo not drawn)
1320	-5.88	109	–	–	Cc1ccc(CNC(=O)NCCCOCC2CC2)cc1F
–	-6.41	–	–	–	C=CCN(CC=C)C(=O)CN1C(=O)NC(C)(c2ccc3c(c2)OCO3)C1=O (single isomer, unassigned)
1220	-5.92	99	Nonspecific ≥ 30 μM	–	CC1(c2ccc3c(c2)OCCO3)NC(=O)N(CC(=O)c2ccccc2F)C1=O (stereo not drawn)
1870	-5.73	56	–	–	CC1(c2cccc3ccccc23)NC(=O)N(CC(=O)N2CCCc3ccccc32)C1=O (stereo not drawn)
–	-6.03	97	–	–	CC(C)OCCCNC(=O)N[C@@H](C)c1cccc(Cl)c1
1460	-5.84	103	–	–	CCOC(=O)c1c(C)[nH]c(C)c1C(=O)CN1C(=O)NC(C)(c2ccc3c(c2)OCO3)C1=O (stereo not drawn)
21700	-4.66	113	–	–	CCCC(=O)Nc1ccc(C(=O)CN2C(=O)N[C@](C)(c3ccc4c(c3)OCO4)C2=O)cc1
2080	-5.68	114	Nonspecific ≥ 30 μM	–	CC1(c2ccc3c(c2)OCO3)NC(=O)N(CC(=O)c2ccc3c(c2)OCO3)C1=O (stereo not drawn)
1910	-5.72	84	–	–	CC1(c2cccc3ccccc23)NC(=O)N(CC(=O)N2CC(=O)Nc3ccccc32)C1=O (stereo not drawn)
2810	-5.55	77	–	–	CC(C)N(C(=O)CN1C(=O)NC(C)(c2cccc3ccccc23)C1=O)C(C)C (stereo not drawn)
1990	-5.70	97	–	–	Cc1ccc(C(C)NC(=O)NCCCNC(=O)C(C)C)cc1F (stereo not drawn)
1850	-5.73	97	–	–	CC1(c2ccc3c(c2)OCCO3)NC(=O)N(CC(=O)c2ccc(S(C)(=O)=O)cc2)C1=O (stereo not drawn)
2140	-5.67	94	Nonspecific ≥ 10 μM	–	CC1(c2ccc3c(c2)OCO3)NC(=O)N(CC(=O)c2ccccc2)C1=O (stereo not drawn)
3560	-5.45	107	–	–	CC(C)(C)C(=O)CN1C(=O)NC(C)(c2ccc3c(c2)OCCO3)C1=O (stereo not drawn)
